Laboratory results taken from ChEMBL document CHEMBL3877300, “Design, synthesis, docking studies and biological evaluation of novel dihydro-1,3,5-triazines as human DHFR inhibitors” (Eur J Med Chem, 2017).

Assay: Antitumor activity against human A549 cells xenografted in BALB/c nude mouse assessed as tumor volume at 2 mg/kg, ip administered 14 times in 22 days measured on day 18 post dose (reference value: 692.11 +/- 102.17 mm3)
Format: functional

## CN(Cc1cnc2nc(N)nc(N)c2n1)c1ccc(C(=O)N[C@@H](CCC(=O)O)C(=O)O)cc1 [METHOTREXATE]
  Activity: 335.97 mm3
